Columns and labels:
[1] = target: E. coli DnaE (DNA polymerase III α-subunit from Escherichia coli) (Escherichia coli, UniProt P10443); assay: In vitro DnaE single enzyme assay (E. coli); type: biochemical
[2] = test system: Escherichia coli MB5747 (LS 883, tolC); conditions: MHII broth; * = some reduction of growth versus control at […]

Sequences of proteins named here, by UniProt entry; tags and fusion partners are left off.
UniProt P10443, whole entry: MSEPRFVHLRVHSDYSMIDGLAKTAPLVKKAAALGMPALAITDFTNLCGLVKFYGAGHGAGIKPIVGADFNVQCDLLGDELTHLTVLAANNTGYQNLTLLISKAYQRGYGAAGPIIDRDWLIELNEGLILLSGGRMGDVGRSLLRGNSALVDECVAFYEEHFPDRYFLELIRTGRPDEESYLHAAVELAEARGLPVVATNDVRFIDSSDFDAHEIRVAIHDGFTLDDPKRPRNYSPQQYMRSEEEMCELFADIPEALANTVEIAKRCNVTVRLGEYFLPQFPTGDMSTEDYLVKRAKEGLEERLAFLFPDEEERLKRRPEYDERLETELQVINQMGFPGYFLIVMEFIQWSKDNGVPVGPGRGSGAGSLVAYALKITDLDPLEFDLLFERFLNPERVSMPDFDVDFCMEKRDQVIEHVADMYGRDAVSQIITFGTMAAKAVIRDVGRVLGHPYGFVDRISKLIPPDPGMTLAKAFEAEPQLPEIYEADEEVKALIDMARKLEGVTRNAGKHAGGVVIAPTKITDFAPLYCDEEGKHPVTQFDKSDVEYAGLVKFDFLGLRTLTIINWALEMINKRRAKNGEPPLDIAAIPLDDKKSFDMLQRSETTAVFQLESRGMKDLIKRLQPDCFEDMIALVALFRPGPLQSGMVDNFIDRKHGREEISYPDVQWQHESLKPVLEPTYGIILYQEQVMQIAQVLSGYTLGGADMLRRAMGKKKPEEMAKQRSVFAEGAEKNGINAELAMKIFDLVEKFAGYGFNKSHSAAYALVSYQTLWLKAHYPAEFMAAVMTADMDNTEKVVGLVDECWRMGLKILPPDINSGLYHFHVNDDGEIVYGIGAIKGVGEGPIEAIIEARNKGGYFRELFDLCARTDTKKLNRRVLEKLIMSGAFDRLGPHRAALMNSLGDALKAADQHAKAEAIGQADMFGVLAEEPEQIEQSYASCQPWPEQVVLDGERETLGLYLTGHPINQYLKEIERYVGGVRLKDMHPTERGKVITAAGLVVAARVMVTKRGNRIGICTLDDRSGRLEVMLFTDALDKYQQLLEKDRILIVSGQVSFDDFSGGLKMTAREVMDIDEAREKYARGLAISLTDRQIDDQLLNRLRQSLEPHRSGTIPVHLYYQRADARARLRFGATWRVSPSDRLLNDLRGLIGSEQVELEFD

CO[C@H]1C[C@H]2C=C[C@H]3[C@H]4O[C@]2(/C(C)=C/[C@@H](C)[C@@H]([C@@H](C)O)OC1=O)[C@@H]3C(O)[C@@H](C)[C@H]4OC(=O)c1ccc[nH]1 (some centres unmarked)
E. coli DnaE IC50 [1]: >50 µg/mL
E. coli LS883 tolC (MIC) [2]: 8 µg/mL
